This assay concerns the target human cannabinoid receptor CB1 (Homo sapiens, UniProt P21554). The assay is described as follows: GloSensor cAMP assay, CB1-transfected HEK293 cells. It is filed as cell-based.

The chains behind the UniProt entries cited, without tags or fusion partners.
UniProt P21554, whole entry: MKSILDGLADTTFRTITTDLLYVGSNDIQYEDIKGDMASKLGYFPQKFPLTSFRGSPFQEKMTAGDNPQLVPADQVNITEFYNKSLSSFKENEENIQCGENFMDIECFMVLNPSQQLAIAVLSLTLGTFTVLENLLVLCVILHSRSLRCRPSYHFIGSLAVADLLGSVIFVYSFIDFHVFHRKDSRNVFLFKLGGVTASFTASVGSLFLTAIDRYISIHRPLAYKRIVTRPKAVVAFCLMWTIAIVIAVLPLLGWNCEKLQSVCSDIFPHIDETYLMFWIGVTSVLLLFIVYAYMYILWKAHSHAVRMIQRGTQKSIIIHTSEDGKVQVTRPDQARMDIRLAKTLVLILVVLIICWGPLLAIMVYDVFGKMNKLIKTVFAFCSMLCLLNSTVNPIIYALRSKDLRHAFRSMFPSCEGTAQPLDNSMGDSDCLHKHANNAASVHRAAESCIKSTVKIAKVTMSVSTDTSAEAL

Regarding `Cc1c(C(=O)NN2CCCCC2)nn(-c2ccc(Cl)cc2Cl)c1-c1ccc(I)cc1` [AM251, N-(piperidin-1-yl)-5-(4-iodophenyl)-1-(2,4-dichlorophenyl)-4-methyl-1H-pyrazole-3-carboxamide, reference compound], the “mode of action at CB1” value was “inverse agonist”.

The values above are taken from paper PMC3973694, “Identification of Odorant-Receptor Interactions by Global Mapping of the Human Odorome” (PLoS ONE, 2014).
